## AlphaSeq binding of Ab-14 heavy chain variants to a spike HR2 peptide

Target peptide (SARS-CoV-2 spike, HR2 region): PDVDLGDISGINAS

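The parent was found by panning a naive human phage display library on the peptide. These sequences belong to a second round, designed from the earlier measurements on random variants of the parent. Several design methods are mixed in this list. Affinity was read by AlphaSeq, a pooled yeast mating assay with surface-displayed partners. Binding brings cells together so that they mate, and sequencing counts the barcode pairs among the diploids. Each replicate has its own calibration line, from reference interactions of the BCL2 family. The assay was run in six technical replicates.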

The variants keep the light chain, the linker and the frameworks of Ab-14 (scFv order VH, a 15-residue (Gly4Ser)3 linker, VL).
VH: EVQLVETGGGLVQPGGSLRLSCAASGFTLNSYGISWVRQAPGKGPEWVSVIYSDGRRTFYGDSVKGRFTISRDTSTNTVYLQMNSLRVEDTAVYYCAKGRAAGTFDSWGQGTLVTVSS
VL: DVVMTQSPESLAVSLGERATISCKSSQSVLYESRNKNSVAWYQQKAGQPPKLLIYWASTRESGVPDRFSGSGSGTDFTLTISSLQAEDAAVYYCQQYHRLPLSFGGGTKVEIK

The parent's heavy chain CDRs are GFTLNSYGIS, VIYSDGRRTFYGDSVK, GRAAGTFDS; each variant's own CDRs replace them letter for letter.
Scale: log10 of Kd in nM, estimated from mating counts; low values are strong binders.
The mean shown is taken over the replicates in which the pair was detected.
A pair that was not seen in any replicate is written "not detected"; this usually means weak binding, but a binder can also be missed.
Entries are sorted by rising average, undetected variants last.
Values of this round are not directly comparable with the first-round values of the same sequences.

{"CDR-H1": "GFDLNEYGIS", "CDR-H2": "VIYADGMRTAYSDDVK", "CDR-H3": "GNTAGTFDQ", "log10 Kd (nM), mean": "-0.50", "detected": "6 of 6", "signal with controls": "0 of 18"}
{"CDR-H1": "GFDLNEYGIS", "CDR-H2": "VIYADGMRTFYSDSVK", "CDR-H3": "GQTAGTFDA", "log10 Kd (nM), mean": "-0.47", "detected": "6 of 6", "signal with controls": "1 of 18"}
{"CDR-H1": "GFDLEDYGIS", "CDR-H2": "VIYADGMRTAYSDSVK", "CDR-H3": "GQNAGTFDV", "log10 Kd (nM), mean": "-0.24", "detected": "4 of 6", "signal with controls": "0 of 18"}
{"CDR-H1": "GFELDEYGIS", "CDR-H2": "VIYADGRRTFYQDSVK", "CDR-H3": "GEVAGTFDV", "log10 Kd (nM), mean": "-0.21", "detected": "6 of 6", "signal with controls": "0 of 18"}
{"CDR-H1": "GFDINEYGIS", "CDR-H2": "VIYADGRRTQYADSVK", "CDR-H3": "GEAAGTFDV", "log10 Kd (nM), mean": "0.11", "detected": "6 of 6", "signal with controls": "0 of 18"}
{"CDR-H1": "GFTLNEYGIS", "CDR-H2": "VIYSDGRRKFYGDSVK", "CDR-H3": "GRIAGTFDS", "log10 Kd (nM), mean": "0.13", "detected": "6 of 6", "signal with controls": "0 of 18"}
{"CDR-H1": "GFTLKSYGIS", "CDR-H2": "VIYADGRRTFYGDDVK", "CDR-H3": "GRAAGTFDS", "log10 Kd (nM), mean": "0.16", "detected": "6 of 6", "signal with controls": "0 of 18"}
{"CDR-H1": "GFSLNSYGIS", "CDR-H2": "VIYSDGRRTFYGDKVK", "CDR-H3": "GEAAGTFDS", "log10 Kd (nM), mean": "0.43", "detected": "6 of 6", "signal with controls": "0 of 18"}
{"CDR-H1": "GFSLDEYGIS", "CDR-H2": "VIYADGRRTFYADSVK", "CDR-H3": "GNSAGTFDS", "log10 Kd (nM), mean": "0.49", "detected": "6 of 6", "signal with controls": "1 of 18"}
{"CDR-H1": "GFKLNEYGIS", "CDR-H2": "VIYSDGRRTFYGDSVK", "CDR-H3": "GRTAGTFDS", "log10 Kd (nM), mean": "0.61", "detected": "6 of 6", "signal with controls": "0 of 18"}
{"CDR-H1": "GFDLNEYGIS", "CDR-H2": "VIYADGSRTFYADSVK", "CDR-H3": "GEAAGTFDQ", "log10 Kd (nM), mean": "0.62", "detected": "6 of 6", "signal with controls": "0 of 18"}
{"CDR-H1": "GFTLNEYGIS", "CDR-H2": "VIYSDGRRTFYIDAVK", "CDR-H3": "GRAAGTFDS", "log10 Kd (nM), mean": "0.70", "detected": "2 of 6", "signal with controls": "0 of 18"}
{"CDR-H1": "GFTLNSYGIS", "CDR-H2": "VIYADGKRTFYGDSVK", "CDR-H3": "GQAAGTFDT", "log10 Kd (nM), mean": "0.79", "detected": "5 of 6", "signal with controls": "0 of 18"}
{"CDR-H1": "GFPLNSYGIS", "CDR-H2": "VIYADGRRTFYGDSVK", "CDR-H3": "GRAAGTNKS", "log10 Kd (nM), mean": "1.15", "detected": "6 of 6", "signal with controls": "1 of 18"}
{"CDR-H1": "GFNLSDYGIS", "CDR-H2": "VIYSDGRRTFYADNVK", "CDR-H3": "GRAAGTFDS", "log10 Kd (nM), mean": "1.33", "detected": "6 of 6", "signal with controls": "0 of 18"}
{"CDR-H1": "GFQLNDYGIS", "CDR-H2": "VIYSDGRRTFYGDSVK", "CDR-H3": "GRAAGTFDD", "log10 Kd (nM), mean": "1.54", "detected": "5 of 6", "signal with controls": "0 of 18"}
{"CDR-H1": "GFTLNSYGIS", "CDR-H2": "VIYSDGRRTIYGDSVK", "CDR-H3": "GRAAGTFDS", "log10 Kd (nM), mean": "1.55", "detected": "6 of 6", "signal with controls": "0 of 18"}
{"CDR-H1": "GFVINSYGIS", "CDR-H2": "VIYSDGRRTFYGDNVK", "CDR-H3": "GRAAGTFDS", "log10 Kd (nM), mean": "1.81", "detected": "4 of 6", "signal with controls": "0 of 18"}
{"CDR-H1": "GFTLNSYGIS", "CDR-H2": "VIYSDGRRTSYGDSVK", "CDR-H3": "GFAAGTFDL", "log10 Kd (nM), mean": "2.20", "detected": "5 of 6", "signal with controls": "0 of 18"}
{"CDR-H1": "GFEINSYGIS", "CDR-H2": "VIYSDGRRTFYGDSVK", "CDR-H3": "GDAAGTFDS", "log10 Kd (nM), mean": "2.27", "detected": "6 of 6", "signal with controls": "2 of 18"}
{"CDR-H1": "GFDLNEYGIS", "CDR-H2": "VIYADGRRTAYSDSVK", "CDR-H3": "GVNAGFFDS", "log10 Kd (nM), mean": "not detected", "detected": "0 of 6", "signal with controls": "0 of 18"}
{"CDR-H1": "GFTPNSYGIS", "CDR-H2": "VIYSDGRRTFYGDSVR", "CDR-H3": "ERAAGTFDS", "log10 Kd (nM), mean": "not detected", "detected": "0 of 6", "signal with controls": "1 of 18"}
{"CDR-H1": "GFDLNSYGIS", "CDR-H2": "VIYSVGRRTFYGDSVK", "CDR-H3": "GRAAGWFNS", "log10 Kd (nM), mean": "not detected", "detected": "0 of 6", "signal with controls": "0 of 18"}
{"CDR-H1": "GFTLNSYGIS", "CDR-H2": "VIYSDGRRTMYIQSVK", "CDR-H3": "GRAAGTFDS", "log10 Kd (nM), mean": "not detected", "detected": "0 of 6", "signal with controls": "0 of 18"}
{"CDR-H1": "GFTLNSYGIS", "CDR-H2": "VIYSDGVRTFYGDSVK", "CDR-H3": "GRAAGIFDM", "log10 Kd (nM), mean": "not detected", "detected": "0 of 6", "signal with controls": "0 of 18"}
{"CDR-H1": "GFDLGEYGVS", "CDR-H2": "VIYADGTRAQYADKVK", "CDR-H3": "GNISYNFTV", "log10 Kd (nM), mean": "not detected", "detected": "0 of 6", "signal with controls": "1 of 18"}
{"CDR-H1": "GFELNSYGIS", "CDR-H2": "VIYSDGRRTFYGDSVK", "CDR-H3": "GHAAGTFDQ", "log10 Kd (nM), mean": "not detected", "detected": "0 of 6", "signal with controls": "0 of 18"}
{"CDR-H1": "GKDLDEQGIS", "CDR-H2": "VIYADGTRTAAANTVK", "CDR-H3": "GEIAGTLKV", "log10 Kd (nM), mean": "not detected", "detected": "0 of 6", "signal with controls": "0 of 18"}

The authors' rule: three or more of the six replicates give a measured affinity, fewer mean a poor binder.
Three control strains display no target. For all heavy chain designs, 1% of the pairings with them gave a signal, with a median of 2.08 and one signal in twenty below 0.84, so weak values seen in few replicates may be background. Also given: how often the same scFv was detected with the empty control strains.
The parent sequence was in this pool as ten entries: three were never detected, three once, and four in most replicates, with averages from 0.34 to 2.37.

The measurements come from Li et al. 2023 (doi:10.1038/s41467-023-39022-2) through the FLAb antibody collection.